What was measured:
[1] = Efflux ratio of apparent permeability across basolateral to apical side to apical to basolateral side in human Caco2 cells by HPLC-MS/MS analysis; details: caco-2
[2] = Efflux ratio of apparent permeability across basolateral to apical side to apical to basolateral side in dog MDCK-MDR1 cells by HPLC-MS/MS analysis
[3] = Ratio of Cmax in Sprague-Dawley rat brain to Cmax in Sprague-Dawley rat plasma; details: strain Sprague-Dawley

CC(C)[C@H]1CC[C@@H](N2CCC(n3cc(CCN)c4ccccc43)CC2)CC1.Cl.Cl
Ratio [1]: 1.5
Ratio [2]: 37

CC(C)[C@H]1CC[C@@H](N2CCC(N3CCc4ccccc43)CC2)CC1
Ratio [1]: 0.8
Ratio [3]: 6.73
Ratio [2]: 1.3

Reference: ChEMBL document CHEMBL4354845, “Discovery and Structure-Activity Relationships of Nociceptin Receptor Partial Agonists That Afford Symptom Ablation in Parkinson's Disease Models” (J Med Chem, 2020)
